# From patent US20080075695A1, “COMBINATION THERAPY METHOD FOR TREATING HEPATITIS C VIRUS INFECTION AND PHARMACEUTICAL COMPOSITIONS FOR USE THEREIN” (priority 2006, published 2008)
# Test system: HCV
# Test: Phase 1b clinical trial (MAD study), plasma HCV RNA
# Format: in vivo, human
# Conditions: for MEAN Δ change from baseline (log HCV RNA level): on-therapy analysis
# [1] = Day 14, PEG-INF alone, all genotypes
# [2] = Day 14, PEG-INF alone, genotype 1
substance,measurement,setting,value
"PEG-INF: pegylated interferon alfa-2b (PEG-Intron), administered subcutaneously [reference compound]",MEAN Δ change from baseline (log HCV RNA level),"Day 4, PEG-INF alone 1.5 μg/kg/dose, all genotypes",−1.03 log
same,MEAN Δ change from baseline (log HCV RNA level),"Day 7, PEG-INF alone 1.5 μg/kg/dose, all genotypes",−1.11 log
same,MEAN Δ change from baseline (log HCV RNA level),"Day 14, PEG-INF alone 1.5 μg/kg/dose, all genotypes",−1.69 log
same,"% Subjects BQL (below quantification limits, <50 IU/mL)",[1],2 (14%)
same,% Subjects with ≧1.5 log ↓ in log10 HCV RNA,[1],7 (50%)
same,% Subjects with ≧2 log ↓ in log10 HCV RNA,[1],6 (43%)
same,% Subjects with ≧3 log ↓ in log10 HCV RNA,[1],2 (14%)
same,% Subjects with ≧2 log ↓ in log10 HCV RNA,"Day 14, PEG-INF alone, all genotypes, listed as pegylated interferon",43%
same,% Subjects with ≧1.5 log ↓ in log10 HCV RNA,[2],4 (40%)
same,% Subjects with ≧2 log ↓ in log10 HCV RNA,[2],4 (40%)
same,mean reduction from baseline in plasma HCV RNA,"day 7, pegylated interferon alone",1.1 log 10
same,mean reduction from baseline in plasma HCV RNA,"day 14, genotype 1, pegylated interferon alone",1.3 log 10
same,mean reduction from baseline in plasma HCV RNA,"day 14, pegylated interferon alone",1.7 log 10
